One test concerns the target Human A1AR (Homo sapiens, UniProt P30542). Conditions: read-out: Ki, human A1AR; ref Tosh et al, 2012b; cited from earlier work.
The target in a further test is mouse A1AR (Mus musculus, UniProt Q60612). Briefly: Radioligand binding, recombinant mouse A1AR in HEK-293 membranes.
A further test deals with T1, mouse A3AR (Mus musculus, UniProt Q61618).
T1 sequence (Q61618 1-319): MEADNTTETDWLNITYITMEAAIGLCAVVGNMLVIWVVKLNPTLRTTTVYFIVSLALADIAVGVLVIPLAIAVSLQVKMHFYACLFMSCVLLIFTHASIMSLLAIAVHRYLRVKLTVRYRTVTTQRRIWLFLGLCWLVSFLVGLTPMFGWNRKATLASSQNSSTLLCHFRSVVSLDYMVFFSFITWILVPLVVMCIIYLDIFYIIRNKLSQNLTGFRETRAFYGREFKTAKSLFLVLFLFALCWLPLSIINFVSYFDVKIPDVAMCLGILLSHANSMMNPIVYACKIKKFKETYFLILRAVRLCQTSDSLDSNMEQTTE
Briefly: Radioligand binding, recombinant mouse A3AR in HEK-293 membranes.

Protein sequences, listed by entry. Tags and fused reporters are not part of them.
UniProt P30542, whole entry: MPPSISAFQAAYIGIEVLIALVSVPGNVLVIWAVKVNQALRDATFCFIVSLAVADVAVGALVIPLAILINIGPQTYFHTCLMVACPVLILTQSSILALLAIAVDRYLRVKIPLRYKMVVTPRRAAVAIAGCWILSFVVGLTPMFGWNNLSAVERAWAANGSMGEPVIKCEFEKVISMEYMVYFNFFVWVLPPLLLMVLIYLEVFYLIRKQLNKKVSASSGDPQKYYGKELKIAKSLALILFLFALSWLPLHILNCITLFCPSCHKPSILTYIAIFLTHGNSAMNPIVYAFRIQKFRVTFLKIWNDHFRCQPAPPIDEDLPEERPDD
UniProt Q60612, whole entry: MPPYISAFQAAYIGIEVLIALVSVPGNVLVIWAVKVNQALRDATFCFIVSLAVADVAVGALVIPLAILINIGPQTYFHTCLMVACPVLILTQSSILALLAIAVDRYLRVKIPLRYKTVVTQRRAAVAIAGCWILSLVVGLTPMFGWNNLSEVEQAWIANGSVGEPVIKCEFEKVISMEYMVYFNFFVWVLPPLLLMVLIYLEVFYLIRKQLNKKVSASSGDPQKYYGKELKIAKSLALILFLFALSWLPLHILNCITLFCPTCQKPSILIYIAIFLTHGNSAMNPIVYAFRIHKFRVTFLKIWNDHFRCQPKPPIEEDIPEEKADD
UniProt Q60613, whole entry: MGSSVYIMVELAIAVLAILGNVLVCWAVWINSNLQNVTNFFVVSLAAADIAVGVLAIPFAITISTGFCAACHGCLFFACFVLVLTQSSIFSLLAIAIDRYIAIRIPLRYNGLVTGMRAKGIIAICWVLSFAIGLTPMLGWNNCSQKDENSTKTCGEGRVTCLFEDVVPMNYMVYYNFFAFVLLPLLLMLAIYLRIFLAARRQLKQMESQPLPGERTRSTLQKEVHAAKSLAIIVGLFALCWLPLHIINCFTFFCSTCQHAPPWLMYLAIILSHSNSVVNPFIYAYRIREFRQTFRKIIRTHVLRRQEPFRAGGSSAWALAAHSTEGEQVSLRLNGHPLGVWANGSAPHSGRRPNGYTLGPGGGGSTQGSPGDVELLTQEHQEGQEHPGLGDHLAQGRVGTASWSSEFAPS

Another test addresses mouse A2AAR (Mus musculus, UniProt Q60613). Briefly: Radioligand binding, recombinant mouse A2AAR in HEK-293 membranes. Conditions: read-out: % inhibition at 10 µM, mouse A2AAR.

Turning to `O[C@@H]1[C@@H]2C[C@@H]2C(n2cnc3c(NC(C4CC4)C4CC4)nc(Cl)nc32)[C@@H]1O` (stereo partly drawn) [MRS5474, (1R,2R,3S,5S)-4-(2-chloro-6-((dicyclopropylmethyl)amino)-9H-purin-9-yl)bicyclo[3.1.0]hexane-2,3-diol], the Ki on Human A1AR was 50 nM; on mouse A1AR, 3.2 ± 0.05 nM; on mouse A3AR it was 1060 ± 251 nM. The inhibition at 10 µM at mouse A2AAR was 34 ± 9%.

As usually defined, the Ki is a measure of affinity in units of concentration, obtained from inhibition or displacement. What is called inhibition is the share of the control response that was lost under treatment.

These data come from paper PMC5183552 (Neuropharmacology, 2016).
